The results in this text go back to ChEMBL document CHEMBL3351463, “Methyl effect in azumamides provides insight into histone deacetylase inhibition by macrocycles” (J Med Chem, 2014).

For this assay, the target named is T1, Polyamine deacetylase HDAC10 (Homo sapiens, UniProt Q969S8).
T1 sequence (Q969S8 whole entry): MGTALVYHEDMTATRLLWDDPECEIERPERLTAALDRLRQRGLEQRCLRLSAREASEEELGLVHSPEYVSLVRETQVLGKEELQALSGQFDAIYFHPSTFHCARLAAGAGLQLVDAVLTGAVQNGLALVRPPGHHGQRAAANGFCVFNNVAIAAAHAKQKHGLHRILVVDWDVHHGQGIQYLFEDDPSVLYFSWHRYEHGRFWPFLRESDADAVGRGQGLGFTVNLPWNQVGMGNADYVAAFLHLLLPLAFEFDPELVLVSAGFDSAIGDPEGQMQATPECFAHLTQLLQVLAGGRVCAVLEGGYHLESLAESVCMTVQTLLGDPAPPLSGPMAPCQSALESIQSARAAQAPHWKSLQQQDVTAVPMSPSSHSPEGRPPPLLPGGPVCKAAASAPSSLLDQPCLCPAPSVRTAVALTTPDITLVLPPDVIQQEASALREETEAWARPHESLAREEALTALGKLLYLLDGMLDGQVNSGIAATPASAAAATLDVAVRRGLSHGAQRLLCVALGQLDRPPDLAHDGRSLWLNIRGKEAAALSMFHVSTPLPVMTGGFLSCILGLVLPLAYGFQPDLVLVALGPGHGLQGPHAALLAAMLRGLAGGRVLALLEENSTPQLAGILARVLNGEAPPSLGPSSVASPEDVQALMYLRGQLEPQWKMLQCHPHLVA
Kind of assay: Inhibition of human recombinant HDAC10 using Ac-Arg-His-Lys(Ac)-Lys(Ac)-AMC substrate incubated for 15 to 30 mins.

pKi: −log10 of the molar value.

The pKi is the Ki on a negative log10 scale, so that one unit is a factor of ten. As for `O=C(CCCCCCC(=O)Nc1ccccc1)NO` [VORINOSTAT], the pKi was 7.40.
